{"source": "patent US8734849B2", "about": "“Multiparticle pharmaceutical dosage form containing a mucoadhesively formulated peptide or protein active substances method for producing said pharmaceutical dosage form” (Evonik Roehm GmbH, priority 2003, dated 2014)", "experiment": "Solubility in water according to DAB 10", "assay_type": "physicochemical", "description": "The solubility in water for the active substance and the substance or substances forming the lipophilic matrix can be defined as specified in DAB 10 (Deutsches Arzneibuch, 10th edition with 3rd supplement 1994, Deutscher Apothekerverlag, Stuttgart und Govi Verlag, Frankfurt/Main, 2nd supplement (1993), IV Allgemeine Vorschriften, pp. 5-6, “Löslichkeit und Lösungsmittel”; see also Ph. Eur. Jul. 4, 2004). The solubility is defined by the number of parts by volume of solvent for 1 part by weight of substance or drug. The definition of “sparingly soluble” includes substances which require from 30 to 100 parts by volume of solvent for 1 part by weight of substance or drug, and the definition of “slightly soluble” includes substances which require from 100 to 1000 parts by volume of solvent for 1 part by weight of substance or drug.", "data": [{"substance": "beta-Interferon human: slightly soluble protein active substance", "values": [{"measurement": "solubility in water according to DAB 10", "value": "at least 600 parts of water for 1 part of active substance"}, {"measurement": "solubility in water, equivalent", "value": 2000, "unit": "µg/mL"}]}]}
